Data on two molecules can be found in ChEMBL document CHEMBL3877301 (J Med Chem, 2016).

SMILES strings stand for the structures.

This assay deals with Adenosine receptor A2a (Homo sapiens, UniProt P29274). Conditions: CHO.

For `COc1ccccc1CNc1nc(N)c2nc(-c3ccco3)sc2n1`, the KiL is 7.16 nM.

Turning to `COc1cccc(CNc2nc(N)c3nc(-c4ccco4)sc3n2)c1`, the KiL is 23 nM.
